Experimental data: patent publication US10695333B2 (NOVARTIS AG, priority 2017, dated 2020)

By UniProt entry, the sequences of proteins in these tests, tags left out.
UniProt P03372, whole entry Y537S: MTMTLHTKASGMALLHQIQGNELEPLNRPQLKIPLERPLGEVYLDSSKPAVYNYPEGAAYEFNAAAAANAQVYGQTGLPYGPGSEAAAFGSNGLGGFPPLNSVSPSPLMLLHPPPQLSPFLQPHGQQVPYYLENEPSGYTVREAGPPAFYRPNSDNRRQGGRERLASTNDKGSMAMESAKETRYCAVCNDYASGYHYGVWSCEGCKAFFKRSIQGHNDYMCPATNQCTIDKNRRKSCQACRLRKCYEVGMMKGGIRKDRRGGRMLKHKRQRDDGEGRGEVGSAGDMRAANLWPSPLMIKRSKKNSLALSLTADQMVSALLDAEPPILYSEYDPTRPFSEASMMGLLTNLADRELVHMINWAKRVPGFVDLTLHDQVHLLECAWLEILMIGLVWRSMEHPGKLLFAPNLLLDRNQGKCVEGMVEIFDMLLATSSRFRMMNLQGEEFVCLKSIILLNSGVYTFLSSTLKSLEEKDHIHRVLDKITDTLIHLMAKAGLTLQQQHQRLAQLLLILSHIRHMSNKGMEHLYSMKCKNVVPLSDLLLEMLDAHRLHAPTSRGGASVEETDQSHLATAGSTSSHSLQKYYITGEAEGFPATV

Key:
[1] = test system: Y537S ER mutant MCF-7 xenograft; assay: Y537S ER mutant MCF-7 breast cancer model in NSG mice; format: in vivo, mouse; conditions: for Tumor response Regression / Tumor response ΔT/ΔC: Day 70; for Tumor response in words: LSZ102 20 and 80 mg/kg daily, fulvestrant 5 mg/mouse weekly
ERα Y537S mutant = ERα Y537S mutant (Homo sapiens, UniProt P03372, Y537S); conditions: MCF-7 Y537S mutant cells, 24 hr treatment
[2] = test system: ER target genes GREB1 and PGR; conditions: MCF-7 Y537S mutant cells, qRT-PCR

ER protein levels (immunoblot) (ERα Y537S mutant) | SMILES | Tumor response Regression ([1]; 5 mg/mouse SC QWeek) | Tumor response ΔT/ΔC ([1]; 5 mg/mouse SC QWeek) | Tumor response in words [1] | Tumor response Regression ([1]; 20 mg/kg QD PO) | Tumor response ΔT/ΔC ([1]; 20 mg/kg QD PO) | Tumor response Regression ([1]; 80 mg/kg QD PO) | Tumor response ΔT/ΔC ([1]; 80 mg/kg QD PO) | ESR1 mRNA levels [2] | mRNA expression of GREB1 and PGR [2]
did not appear to have any effect | C[C@]12CC[C@@H]3c4ccc(O)cc4C[C@@H](CCCCCCCCC[S+]([O-])CCCC(F)(F)C(F)(F)F)[C@H]3[C@@H]1CC[C@@H]2O (some centres unmarked) [Fulvestrant, reference compound] | none | 39.4% | did not reach statistically significant efficacy | – | – | – | – | – | –
– | CC(F)(F)c1cc(F)ccc1-c1sc2cc(O)ccc2c1Oc1ccc(/C=C/C(=O)O)cc1 [LSZ102, (E)-3-(4-((2-(2-(1,1-difluoroethyl)-4-fluorophenyl)-6-hydroxybenzo[b]thiophen-3-yl)oxy)phenyl)acrylic acid] | – | – | regressed the Y537S ER expressing MCF-7 xenografts | 17.7% | −5.5% | 46.9% | −13.9% | not significantly reduced | dose response inhibition
